# Measured values reported in ChEMBL document CHEMBL3351493, “Beta-aminoketones as prodrugs for selective irreversible inhibitors of type-1 methionine aminopeptidases” (Bioorg Med Chem Lett, 2014).
# Assay: Glutathione reactivity assessed as second-order rate constant at 250 uM at pH 6.0 by HPLC-UV method
structure (smiles),measurement,value
C=C1Cc2cc(OC)c(OC)cc2C1=O,K,4.6 M⁻¹ s⁻¹
